Source: US4758555A, “Method for treating convulsions and epilepsy with organic copper compounds” (priority 1986, dated 1988)

Experiment: Rotating rod neurotoxicity
Settings: dose and time given in the source

Substance	Rotating rod toxicity (in words)
Copper acetate [Cu(II)2 (acetate)4]	Rotating rod toxicity at 30, 100, 300 and 600 mg/kg
Cu(II)2 (benzoate)4	Rotating rod toxicity at 300 mg/kg
